Measured values: US11918570B2, “Method of treatment for prevention of glucocorticoid toxicity and/or enhancement of muscle regeneration via neutrophil elastase inhibition” (The Research Foundation for The State University of New York, priority 2020, dated 2024)

Target: T1, Human NE (hNE) (Homo sapiens, UniProt P08246)
T1 sequence (P08246 30-267): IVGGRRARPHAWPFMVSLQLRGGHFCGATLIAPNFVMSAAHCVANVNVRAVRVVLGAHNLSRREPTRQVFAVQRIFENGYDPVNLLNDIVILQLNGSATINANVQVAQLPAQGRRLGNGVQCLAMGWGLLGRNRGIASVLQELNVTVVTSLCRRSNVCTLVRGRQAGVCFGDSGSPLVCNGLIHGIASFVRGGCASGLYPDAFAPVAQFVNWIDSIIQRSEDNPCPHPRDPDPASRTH
Assay: Human NE activity in vitro, cumulative elastase activity over time
Assay type: biochemical
Details: hNE incubated with various concentration of inhibitor; FIGS. 1A-1C
Procedure: In FIGS. 1A-1C Human NE (hNE) was incubated for the indicated amount of time (X-axis) either alone (Control, black line) or in the presence of various concentration of inhibitor, as indicated in each graph (colored lines). The cumulative elastase activity detected over time is plotted.
Several methods for measuring elastase enzymatic activity are known in the art. Merely by way of example, elastase activity can be determined by measuring the fluorescence emitted by a fluorigenic peptide such as MeOSuc-Ala-Ala-Pro-Val-AFC or Suc-Ala-Ala-Ala-AMC. Fluorescence may be measured, for example, using a plate reader. Other suitable assays for measuring elastase activity will be known to the skilled person. These may include measuring the product generated by incubation with a fluorescently labelled peptide such as 5-FAM-Arg-Glu-Ala-Val-Val-Tyr or 5-FAM-Ala-Ala-Ala-Phe-Tyr-Asp using an instrument that detects the size of the fluorescently labelled probe.

SMILES: CC(=O)C1=C(C)N(c2cccc(C(F)(F)F)c2)C(=O)N[C@@H]1c1ccc(C#N)nc1 [BAY-678]
- inhibiting human NE activity in vitro: similarly potent
